Reference: patent publication US20260384421A1, “NOVEL COMPOUNDS THAT CAN BE USED AS THERAPEUTIC AGENTS” (published 2026)
pIC50: −log10 of the molar value. Read-outs that look alike come from different tables or passages of the source.

Legend:
[1] = system: mitochondrial transmembrane potential Δψm in A-549 cells; experiment: mitochondrial activity assay (TMRE staining, mitochondrial transmembrane potential) on A-549 cells
Description: A decrease in mitochondrial function can be assessed by the relative quantification of the mitochondrial transmembrane potential Δψm. The Adm-decreasing activities of compounds falling under general formula (I) were investigated with tetramethylrhodamine ethyl ester (TMRE) staining on A-549 cells. Access and cultivation method of A-549 cells are as described above. To this end, according cells were seeded into 96-well plates suitable for fluorescence assays (Greiner Bio-One, #655090) at a cell number of 45'000 cells per well. Cells were incubated over night at 37 °C and 5% CO2. This was followed by a complete medium change with 100 μL per well of fresh culture medium pre-warmed to 37 °C. Cells were further incubated at 37 °C and 5% CO2 for three hours. Then the cells were treated with compounds at 10 μM final concentration by adding 100 μL per well of a 2× compound working solution of 1:50 pre-diluted compound DMSO stock-solutions in Hank's Balanced Salt Solution (HBSS, Fisher Scientific, Gibco™ #14025). Cells were incubated for 2 hours and 40 minutes at 37 °C and 5% CO2. Then cells were treated with TMRE (AAT-Bioquest, #22220) at 300 nM final concentration by adding 20 μL per well of a 10×TMRE working solution from a 1:5 pre-diluted TMRE DMSO stock-solution in H2O (Water For Injection, WFI, Fisher Scientific, Gibco™ #A12873). Cells were incubated for further 20 minutes at room temperature in the dark, gently shaking on an orbital shaker (IKA, MTS 2/4 Digital Shaker, shaking at 300 rpm). Extracellular TMRE signal was quenched by adding 20 μL per well of a 1.6 mM solution of Brilliant Black BN (Carl Roth, #7643) in H2O. Cells were further incubated for 60 min at room temperature. Then the readout was taken with a multi-well plate-reader (Tecan Spark®) in the fluorescence mode using a filter for excitation at 535 nm (band width 25 nm) and for emission at 595 nm (band width 35 nm) without plate lid. Treatment for strong decrease in Δψm with the commercial mitochondrial uncoupler compound 2,4-dinitrophenol (DNP, Sigma Aldrich-Merck #34334) at a final concentration of 50 μM was included on every plate for assay quality control.
The assays were performed in two independent biological replicates, each containing three technical replicates for every condition. For every individual plate, the measured fluorescence intensity values of the conditions with compound treatment were normalized against the corresponding equally weighted arithmetic mean of the fluorescence intensity values of the three DMSO treated control wells in order to obtain the relative values to a reference level of 1.0.
The weighted arithmetic mean and the combined standard deviation as defined in the present invention was calculated for each compound as described above. The DNP control decreased the relative mitochondrial transmembrane potential Δψm in A-549 cells to 0.2.

A-549 cells = experiment: alamarBlue proliferation assay with A-549 cells; details: read-out: Activity on A-549: IC50, DMEM medium, 10% FBS
From the text: (§1) These hyperproliferative processes can be benign or malignant and include hyperplasia, neoplasia, cancer and pre-cancerous lesions, and metastases. The antiproliferative activities of compounds falling under general formula (I) were investigated on human primary epidermal keratinocytes (HPEK) and human, murine and canine cell lines derived from hyperproliferative tissue or different cancer types, including MDA-MB-231, ZR-75-30, HCC-1395, HCC-1937, and T-47D all originating from cancer of the breast, JURKAT, RPMI-8402, LOUCY, TANQUE, REC-1, HL-60, NB-4 all originating from different types of blood cancer including lymphoma and leukemia of T-cells, B-cells and myeloid cells, TT originating from cancer of the neuroendocrine system, HeLa originating from cancer of the cervix, 23132/87, SW-948, and HCT-116 all originating from cancer of the gastrointestinal tract including stomach and colon, BHY originating from cancer of the mucosal epithelium, A-431 originating from cancer of the skin, HEP-G2 originating from cancer of the liver, NCI-H460 and A-549 both originating from cancer of the lung, PANC-1 originating from cancer of the pancreas, U-87 MG originating from cancer of the brain, A-375 and RVH-421 both originating from cancer of melanocytes, SW-1353 originating from cancer of bone-derived chondrocytes, C2C12 a mouse cell line originating from hyperproliferative muscle progenitor cells, LL/2 a mouse cell line originating from cancer of the lung, CF21.T a dog cell line originating from cancer of the connective tissue. To this end, according cells were seeded into 96-well plates (CORNING #3598) suitable for fluorescence assays at following initial cell numbers: 1000 cells per well for HPEK; 3000 cells per well for MDA-MB-231, 8000 cells per well for ZR-75-30, 1500 cells per well for HCC-1395, 1500 cells per well for HCC-1937, 3000 cells per well for T-47D, 1500 cells per well for JURKAT, 5000 cells per well for RPMI-8402, 9000 cells per well for LOUCY, 1500 cells per well for TANQUE, 9000 cells per well for REC-1, 1000 cells per well for HL-60, 1000 cells per well for NB-4, 9000 cells per well for TT, 2000 cells per well for HeLa, 2000 cells per well for 23132/87, 9000 cells per well for SW-948, 700 cells per well for HCT-116, 1500 cells per well for BHY, 700 cells per well for A-431, 1500 cells per well for HEP-G2, 500 cells per well for NCI-H460, 1000 cells per well for A-549, 1500 cells per well for PANC-1, 2500 cells per well for U-87 MG, 700 cells per well for A-375, 1500 cells per well for RVH-421, 2000 cells per well for SW-1353, 500 cells per well for C2C12, 500 cells per well for LL/2, and 3000 cells per well for CF21.T. In a volume of 90 μL per well of culture medium the cells were treated with compounds at indicated final concentrations by adding 10 μL per well of 10× compound working solutions from 1:100 pre-diluted 1000× compound DMSO stock-solutions in H2O (Water For Injection, WFI, Fisher Scientific, Gibco™ #A12873) or with the empty carrier DMSO (AppliChem, #A3672) at 0.1% v/v as control yielding a final volume of 100 μL per well. At day 5 after starting the treatments the cells were subjected to the alamarBlue® Proliferation Assay (Bio-Rad Serotec GmbH, BUF012B) according to the protocol of the manufacturer. The readout was taken with a multi-well plate-reader (Tecan Spark®) in the fluorescence mode with applying a filter for excitation at 560 nm (band width 10 nm) and for emission at 590 nm (band width 10 nm). Treatment for maximum proliferation inhibition with the commercial cytotoxic compound (S)-(+)-camptothecin (Fluorochem #M01564) at a concentration of 10 μM was included on each plate for assay quality control. Some of the test compounds of the present invention may have been obtained and applied as their salt forms.
(§2) The assays were performed in duplicate or more replicates of independent single experiments each containing a three- to six-fold replicate for every condition. […]

HEP-G2 cells = experiment: alamarBlue proliferation assay with HEP-G2 cells; details: read-out: Activity on HEP-G2: IC50, RPMI 1640 medium, 10% FBS
From the text: as §1, §2

MDA-MB-231 cells = experiment: alamarBlue proliferation assay with MDA-MB-231 cells (glucose-free Leibovitz's L-15 medium)
From the text: as §1, §2

LL/2 cells = experiment: alamarBlue proliferation assay with LL/2 cells; details: read-out: Activity on LL/2: IC50; LL/2 murine Lewis lung carcinoma cells, DMEM medium, 10% FBS
From the text: as §1, §2

HPEKp cells = experiment: proliferation assay with human epidermal keratinocyte progenitors (HPEKp), selectivity versus MDA-MB-231
From the text: as §1, §2

NCI-H460 cells = experiment: alamarBlue proliferation assay with NCI-H460 cells; details: read-out: Activity on NCI-H460: IC50, RPMI 1640 medium, 10% FBS
From the text: as §1, §2

BHY cells = experiment: alamarBlue proliferation assay with BHY cells; details: read-out: Activity on BHY: IC50, DMEM medium, 10% FBS
From the text: as §1, §2

TANQUE cells = experiment: alamarBlue proliferation assay with TANQUE cells; details: read-out: Activity on TANOUE: IC50, RPMI 1640 medium, 10% FBS
From the text: as §1, §2

HCT-116 cells = experiment: alamarBlue proliferation assay with HCT-116 cells; details: read-out: Activity on HCT-116: IC50, McCoy's 5A medium, 10% FBS
From the text: as §1, §2

NB-4 cells = experiment: alamarBlue proliferation assay with NB-4 cells; details: read-out: Activity on NB-4: IC50, RPMI 1640 medium, 10% FBS
From the text: as §1, §2

A-431 cells = experiment: alamarBlue proliferation assay with A-431 cells; details: read-out: Activity on A-431: IC50, DMEM medium, 10% FBS
From the text: as §1, §2

[2] = read-out: Activity (MDA), MDA-MB-231 cells, antiproliferative activity, class by IC50
[3] = read-out: Activity on MDA-MB-231 (IC50), glucose-free Leibovitz's L-15, 10% FBS, day 5, alamarBlue
[4] = read-out: Activity (HPEK), HPEK cells (HPEKp), antiproliferative activity, class by IC50
[5] = read-out: Activity (MDA): antiproliferative activity on MDA-MB-231 cells, IC50 category, MDA-MB-231 cells cultivated in glucose-free Leibovitz's L-15 medium
[6] = read-out: Activity (HPEK): antiproliferative activity on HPEK cells, IC50 category, HPEK cells cultivated in CnT-Prime medium

Row | SMILES | pIC50 (HEP-G2 cells) | pIC50 (MDA-MB-231 cells; [3]) | pIC50 (A-431 cells) | pIC50 (MDA-MB-231 cells; [5]) | pIC50 (HPEKp cells; [6]) | further results
1 | O=[N+]([O-])c1ccc(O)c([N+](=O)[O-])c1 |  |  |  |  |  | relative mitochondrial transmembrane potential Δψm ([1]; DMSO control = 1.0, compounds 10 μM, DNP 50 μM, TMRE, A-549): 0.2
2 | O=C(c1ccc(Oc2ccc(C3CCC4(CC3)OCCO4)cc2CO)cc1)N1CCN(Cc2cccc3ccccc23)CC1 | ≥ 5.30 | ≥ 6.00 | ≥ 5.30 | > 6.00 | > 5.30 | 
3 | C#CCN1CCN(C(=O)c2ccc(Oc3ccc(C4CCC(=O)CC4)cc3CO)cc2)CC1 |  | ≥ 5.30 | ≥ 4.70 | > 5.30 | < 5.00 | 
4 | O=Cc1cc(C2CCC3(CC2)OCCO3)ccc1Oc1ccc(C(=O)N2CCN(CCO)CC2)cc1 | ≥ 5.30 | ≥ 5.30 | ≥ 6.00 |  |  | 
5 | O=C(c1ccc(Oc2ccc(C3CCC4(CC3)OCCO4)cc2CO)cc1)N1CCN(CCc2ccccc2)CC1 | ≥ 5.30 | ≥ 5.30 | ≥ 5.30 | > 5.30 | < 5.00 | 
6 | CC(C)N1CCN(C(=O)c2ccc(Oc3ccc(C4CCC5(CC4)OCCO5)cc3CO)cc2)CC1 | ≥ 4.70 | ≥ 5.30 | ≥ 4.70 | > 5.30 | < 5.00 | 
7 | CC(C)N1CCN(C(=O)c2ccc(Oc3ccc(C4CCC5(CC4)OCCO5)cc3C=O)cc2)CC1 | ≥ 5.30 | ≥ 5.30 | ≥ 6.00 |  |  | 
8 | O=Cc1cc(C2CCC3(CC2)OCCO3)ccc1Oc1ccc(C(=O)N2CCN(CCc3ccccc3)CC2)cc1 | ≥ 4.70 | ≥ 5.30 | ≥ 5.30 |  |  | 
9 | O=C(c1ccc(Oc2ccc(C3CCC4(CC3)OCCO4)cc2CO)cc1)N1CCN(CC2CCCC2)CC1 | ≥ 5.30 | ≥ 5.30 | ≥ 5.30 | > 5.30 | < 5.00 | pIC50 (LL/2 cells): ≥ 5.30; pIC50 (BHY cells): ≥ 5.30; pIC50 (TANQUE cells): ≥ 5.30; pIC50 (HCT-116 cells): ≥ 5.30; pIC50 (NB-4 cells): ≥ 5.30
10 | C#CCN1CCN(C(=O)c2ccc(Oc3ccc(C4CCC5(CC4)OCCO5)cc3CO)cc2)CC1 | ≥ 4.70 | ≥ 5.30 | ≥ 4.70 | > 5.30 | < 5.00 | 
11 | COc1cc(C2CCCCC2)cc(CO)c1Oc1ccc(C(=O)N2CCN(Cc3ccccc3)CC2)cc1 | ≥ 5.30 | ≥ 5.30 | ≥ 5.30 | > 5.30 | < 5.00 | 

Further lines, with some results ahead:

Row | pIC50 (HEP-G2 cells) | pIC50 (MDA-MB-231 cells; [3]) | pIC50 (A-431 cells) | pIC50 (MDA-MB-231 cells; [5]) | pIC50 (HPEKp cells; [6]) | SMILES | further results
12 | ≥ 6.70 | ≥ 6.70 |  |  |  | O=C(c1ccc(Oc2ccc(C3CCCCC3)cc2CO)cn1)N1CCN(Cc2ccc(Cl)cc2)CC1 | pIC50 (A-549 cells): ≥ 6.70; pIC50 (MDA-MB-231 cells; [2]): > 6.00; pIC50 (LL/2 cells): ≥ 5.30; pIC50 (HPEKp cells; [4]): > 5.30; pIC50 (NCI-H460 cells): ≥ 6.70; pIC50 (BHY cells): ≥ 6.70; pIC50 (TANQUE cells): ≥ 6.70; pIC50 (HCT-116 cells): ≥ 6.70; pIC50 (NB-4 cells): ≥ 6.70
13 | ≥ 6.70 | ≥ 6.70 |  |  |  | COc1ccc(CN2CCN(C(=O)c3ccc(Oc4ccc(C5CCCCC5)cc4C=O)cc3)CC2)cc1 | pIC50 (A-549 cells): ≥ 6.70; pIC50 (MDA-MB-231 cells; [2]): > 6.00; pIC50 (HPEKp cells; [4]): > 5.30; pIC50 (NCI-H460 cells): ≥ 6.00
14 | ≥ 6.00 | ≥ 6.70 | ≥ 5.30 |  |  | O=Cc1cc(C2CCC3(CCCC3)CC2)ccc1Oc1ccc(C(=O)N2CCN(Cc3ccccc3)CC2)cc1 | 
15 | ≥ 6.70 |  |  |  |  | COc1ccc(CN2CCN(C(=O)c3ccc(Oc4ccc(C5CCC(OC)CC5)cc4O)cc3)CC2)cc1 (centres unmarked) | pIC50 (A-549 cells): ≥ 6.70; Activity: relative mitochondrial transmembrane potential Δψm ([1]; A-549 cells, compounds at 10 μM, 2 h 40 min, TMRE staining, relative to DMSO = 1.0): Δψm ≤0.7; pIC50 (BHY cells): ≥ 6.70; pIC50 (TANQUE cells): ≥ 6.00; pIC50 (HCT-116 cells): ≥ 6.00; pIC50 (NB-4 cells): ≥ 6.00
16 | ≥ 6.00 | ≥ 6.70 | ≥ 4.70 | > 6.00 | > 5.00 | O=C(c1ccc(Oc2ccc(C3CCC4(CC3)OCCO4)cc2CO)cc1)N1CCN(Cc2cccc3cccnc23)CC1 | 
17 | ≥ 6.70 | ≥ 6.70 | ≥ 6.70 | > 6.00 | > 5.30 | O=Cc1cc(C2CCC3(CC2)OCCO3)ccc1Oc1ccc(C(=O)N2CCN(Cc3ccc(C(F)(F)F)cc3)CC2)cc1 | 
